Source: paper PMC3488302 (MedChemComm, 2012)

Test: RRCK permeability
Conditions: MDCK

For `CC(C)C[C@@H]1NC(=O)[C@H](Cc2ccc(O)cc2)N(C)C(=O)[C@H]2CCCN2C(=O)[C@H](CC(C)C)NC(=O)[C@H](CC(C)C)N(C)C(=O)[C@@H](CC(C)C)N(C)C1=O` [Compound 1], the recovery was 53.7%.
